In ChEMBL document CHEMBL5214927, “Recent advance on carbamate-based cholinesterase inhibitors as potential multifunctional agents against Alzheimer's disease” (Eur J Med Chem, 2022):

Target: Acetylcholinesterase (Torpedo californica, UniProt P04058)
Assay: Inhibition of Pacific electric ray AChE using acetylthiocholine iodide as substrate preincubated for 5 mins followed by substrate addition measured after 2 mins by Ellman's method

Question: With `Cc1c(OC(=O)N(C)C)c(=O)ccn1-c1ccccc1` as the molecule, how does the IC50 read?
Answer: Its IC50 is 48.8 µM.
